# Target: Prothrombin (Homo sapiens, UniProt P00734)
# Experiment: Binding affinity towards human thrombin.
smiles,measurement,value
Cc1cc(OCCNc2ccncc2)cc(OS(=O)(=O)c2ccccc2[N+](=O)[O-])c1,Ki,6 nM
